Laboratory results: PMC6264418, “t-Bu2SiF-Derivatized D2-Receptor Ligands: The First SiFA-Containing Small Molecule Radiotracers for Target-Specific PET-Imaging” (Molecules, 2011)

The chains behind the UniProt entries cited, without tags or fusion partners.
UniProt P14416, whole entry: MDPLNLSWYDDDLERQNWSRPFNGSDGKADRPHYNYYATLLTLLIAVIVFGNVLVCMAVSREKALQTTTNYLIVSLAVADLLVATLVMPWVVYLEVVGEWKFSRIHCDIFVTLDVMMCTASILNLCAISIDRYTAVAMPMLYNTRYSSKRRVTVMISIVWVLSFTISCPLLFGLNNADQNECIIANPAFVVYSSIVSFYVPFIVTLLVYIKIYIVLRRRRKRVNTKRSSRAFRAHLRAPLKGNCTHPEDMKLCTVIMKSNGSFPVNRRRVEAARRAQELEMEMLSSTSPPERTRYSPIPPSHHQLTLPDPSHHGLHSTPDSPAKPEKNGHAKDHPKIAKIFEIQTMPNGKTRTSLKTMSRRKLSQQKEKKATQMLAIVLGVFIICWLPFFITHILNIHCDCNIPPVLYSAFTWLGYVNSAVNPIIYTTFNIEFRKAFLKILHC

Molecular target: T1, human D2 receptor (Homo sapiens, UniProt P14416)
T1 construct: expressed in transfected cells
Assay: [3H]spiperone binding assay, dopamine D2-receptor affinity (HEK293 cells stably expressing D2 receptors)
Conditions: [3H]spiperone competition, 3 independent experiments, Ki from IC50 by Cheng-Prusoff, read-out: Ki (nM ± SEM)
Procedure: Source of the dopamine-D2-receptors was cell line HEK293 which expresses the D2 receptors stably. […] All substances were evaluated in 3 independent competition experiments in six concentrations (each in triplicate). The Ki-values were calculated from the IC50-values according to Cheng-Prusoff as described in detail in [23].

Ki: 1.21 ± 0.43 nM
Structure (SMILES): CCN1CCC[C@H]1CNC(=O)c1c(O)c(Cl)cc(Cl)c1OC [Raclopride, raclopride, reference compound]
